The chains behind the UniProt entries cited, without tags or fusion partners.
UniProt P34972, whole entry: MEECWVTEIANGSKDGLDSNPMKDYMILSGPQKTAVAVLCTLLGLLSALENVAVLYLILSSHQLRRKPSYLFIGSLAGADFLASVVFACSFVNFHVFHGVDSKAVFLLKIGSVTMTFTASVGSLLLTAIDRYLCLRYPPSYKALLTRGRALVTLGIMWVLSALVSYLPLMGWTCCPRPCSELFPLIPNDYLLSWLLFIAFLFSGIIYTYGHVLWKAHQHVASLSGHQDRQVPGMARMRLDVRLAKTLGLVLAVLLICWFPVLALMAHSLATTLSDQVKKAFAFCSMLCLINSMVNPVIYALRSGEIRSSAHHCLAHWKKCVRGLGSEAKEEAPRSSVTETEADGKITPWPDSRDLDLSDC
UniProt P21554, whole entry: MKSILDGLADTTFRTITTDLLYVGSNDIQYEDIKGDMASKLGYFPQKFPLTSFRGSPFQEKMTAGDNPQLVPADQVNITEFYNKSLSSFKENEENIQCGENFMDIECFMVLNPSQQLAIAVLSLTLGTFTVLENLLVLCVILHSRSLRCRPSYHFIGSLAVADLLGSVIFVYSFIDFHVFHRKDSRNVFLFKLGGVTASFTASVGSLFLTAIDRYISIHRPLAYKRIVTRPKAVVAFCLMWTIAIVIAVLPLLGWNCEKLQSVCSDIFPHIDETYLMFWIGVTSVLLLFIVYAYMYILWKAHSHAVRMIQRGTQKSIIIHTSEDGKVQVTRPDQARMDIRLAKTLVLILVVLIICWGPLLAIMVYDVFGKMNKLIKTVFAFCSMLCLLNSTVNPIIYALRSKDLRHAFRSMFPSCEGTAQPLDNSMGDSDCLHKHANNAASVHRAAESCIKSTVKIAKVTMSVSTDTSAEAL

In ChEMBL document CHEMBL4028847, “Perspectives of Cannabinoid Type 2 Receptor (CB2R) Ligands in Neurodegenerative Disorders: Structure-Affinity Relationship (SAfiR) and Structure-Activity Relationship (SAR) Studies” (J Med Chem, 2017):

Experiments:
Cannabinoid receptor 2 = Cannabinoid receptor 2 (Homo sapiens, UniProt P34972); assay: Binding affinity to CB2 receptor (unknown origin)
Cannabinoid receptor 1 = Cannabinoid receptor 1 (Homo sapiens, UniProt P21554); assay: Binding affinity to CB1 receptor (unknown origin)
Homo sapiens [1] = organism: Homo sapiens; assay: Selectivity index, ratio of EC50 for human CB1 receptor to Ki for human CB2 receptor
Homo sapiens [2] = organism: Homo sapiens; assay: Selectivity index, ratio of Ki for CB1 receptor (unknown origin) to Ki for CB2 receptor (unknown origin); details: tested as the 11C-labelled form

`[11CH3]OC(=O)c1c(NC(=O)C23CC4CC(CC(O)(C4)C2)C3)sc2c1CCCC2` was tested, and the Ki (Cannabinoid receptor 2) was 3.3 nM and the Ki (Cannabinoid receptor 1) was 1000 nM.
`CC(C)[C@H](NC(=O)c1nn(Cc2ccc(F)cc2)c2ccccc12)C(N)=O` showed a Ratio EC50 (Homo sapiens [1]) of 1.5 to 3.2.
`CCOCCn1cc(C(=O)NC23CC4CC(CC(C4)C2)C3)c(=O)c2cccc(O[11CH3])c21` showed a Ki (Cannabinoid receptor 2) of 0.7 nM.
With `COC(=O)c1c(NC(=O)C23CC4CC(CC(O)(C4)C2)C3)sc2c1CCCC2` the Ratio Ki (Homo sapiens [2]) was 303.
